Results reported in publication PMC3285107 (ACS medicinal chemistry letters, 2012).

Test system: RGS4
Experiment: FCPIA: inhibition of Gαo binding to RGS4
Method in brief: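 Primary FCPIA screen for inhibition of Gαo binding to RGS4, run in parallel against RGS8, its closest sequence relative, to assess selectivity. IC50 values are averages of two independent experiments. Calculated ΔpIC50 mean error: 0.2 for RGS4, 0.14 for RGS8.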

selectivity for RGS4 versus RGS8: ~6000 fold
Compound: CCCCn1c(=O)sn(CC)c1=O [11b]
